Drawing on BindingDB's records for doi:10.1016/j.bmc.2007.04.050 (Universitat De Barcelona, 2007), this text covers IC50 for one molecule.

The structures appear in SMILES notation.

The target in the assay is 3-alpha-hydroxysteroid dehydrogenase AKR1C9 (Rattus norvegicus) (UniProt P23457). Nature of the assay: Inhibition of rat liver 3-alpha-HSD assessed as 5-beta-dihydrocortisone reduction.

Consider `CC(C)Cc1ccc([C@H](C)C(=O)O)cc1` [(RS)-ibuprofen], for which the IC50 is 100 µM.

As usually defined, the IC50 is the concentration that inhibits the measured activity by half.
